Tested on: NCI-H292 cells
Assay: Number of living cells (MTS, CellTiter 96 AQueous One) after chemotherapy and/or poly(I:C)
Settings: agent in combination with poly(I:C), average CI

O=C1[O][Pt]2([NH][C@@H]3CCCC[C@H]3[NH]2)[O]C1=O [Oxaliplatin, oxaliplatin]
CI (combination index): 0.63 ± 0.19

From patent US20120045523A1, “COMBINATION OF A TLR3 LIGAND AND A CHEMOTHERAPY AGENT WHICH ACTS ON THE INTRINSIC "APOPTOSIS" PATHWAY IN THE TREATMENT OF CANCER” (UNIVERSITE CLAUDE BERNARD LYON I, priority 2008, published 2012)
